pIC50: −log10 of the molar value.
These molecules were tested against HA-tagged PA of FluA (Influenza A virus, UniProt Q2VC91) (assay: biochemical).
Assay type: binding

Row | SMILES | pIC50
1 | CSCC[C@H](N)C(=O)N[C@@H](CC(=O)O)C(=O)N[C@H](C(=O)N[C@@H](CC(N)=O)C(=O)N1CCC[C@H]1C(=O)N[C@H](C(=O)N[C@@H](CC(C)C)C(=O)N[C@@H](CC(C)C)C(=O)N[C@@H](Cc1ccccc1)C(=O)N[C@@H](CC(C)C)C(=O)N[C@@H](CCCCN)C(=O)N[C@H](C(N)=O)C(C)C)[C@@H](C)O)C(C)C [1–12] | 6.19
2 | CC[C@H](C)[C@H](NC(=O)[C@H](C)NC(=O)[C@H](CC(N)=O)NC(=O)[C@H](CCC(N)=O)NC(=O)[C@H](C)NC(=O)[C@@H]1CCCN1C(=O)[C@@H](NC(=O)[C@H](CCCCN)NC(=O)[C@H](CC(C)C)NC(=O)[C@H](Cc1ccccc1)NC(=O)[C@H](CC(C)C)NC(=O)[C@H](CC(C)C)NC(=O)[C@@H](NC(=O)[C@@H]1CCCN1C(=O)[C@H](CC(N)=O)NC(=O)[C@@H](NC(=O)[C@H](CC(=O)O)NC(=O)[C@@H](N)CCSC)C(C)C)[C@@H](C)O)C(C)C)C(=O)N[C@@H](CO)C(=O)N[C@H](C(N)=O)[C@@H](C)O [1–20] | 7.47
3 | CSCC[C@H](N)C(=O)N[C@@H](CC(=O)O)C(=O)N[C@H](C(=O)N[C@@H](CC(N)=O)C(=O)N1CCC[C@H]1C(=O)N[C@H](C(=O)N[C@@H](CC(C)C)C(=O)N[C@@H](CC(C)C)C(=O)N[C@@H](Cc1ccccc1)C(=O)N[C@@H](CC(C)C)C(=O)N[C@@H](CCCCN)C(=O)N[C@H](C(=O)N1CCC[C@H]1C(=O)N[C@@H](C)C(N)=O)C(C)C)[C@@H](C)O)C(C)C [1–14] | 7.46
4 | CSCC[C@H](N)C(=O)N[C@@H](CC(=O)O)C(=O)N[C@H](C(=O)N[C@@H](CC(N)=O)C(=O)N1CCC[C@H]1C(=O)N[C@H](C(=O)N[C@@H](CC(C)C)C(=O)N[C@@H](CC(C)C)C(=O)N[C@@H](Cc1ccccc1)C(=O)N[C@@H](CC(C)C)C(=O)N[C@@H](CCCCN)C(=O)N[C@H](C(=O)N1CCC[C@H]1C(=O)N[C@@H](C)C(=O)N[C@@H](CCC(N)=O)C(=O)N[C@@H](CC(N)=O)C(N)=O)C(C)C)[C@@H](C)O)C(C)C [1–16] | 7.34
5 | CC[C@H](C)[C@H](NC(=O)[C@H](C)NC(=O)[C@H](CC(N)=O)NC(=O)[C@H](CCC(N)=O)NC(=O)[C@H](C)NC(=O)[C@@H]1CCCN1C(=O)[C@@H](NC(=O)[C@H](CCCCN)NC(=O)[C@H](CC(C)C)NC(=O)[C@H](Cc1ccccc1)NC(=O)[C@H](CC(C)C)NC(=O)[C@H](CC(C)C)NC(=O)[C@@H](NC(=O)[C@@H]1CCCN1)[C@@H](C)O)C(C)C)C(=O)N[C@@H](CO)C(=O)N[C@H](C(=O)N[C@H](C(=O)N[C@@H](Cc1ccccc1)C(=O)N1CCC[C@H]1C(=O)N[C@@H](Cc1ccc(O)cc1)C(=O)N[C@H](C(N)=O)[C@@H](C)O)[C@@H](C)O)[C@@H](C)O [5–25] | 6.32
6 | CSCC[C@H](N)C(=O)N[C@@H](CC(=O)O)C(=O)N[C@H](C(=O)N[C@@H](CC(N)=O)C(=O)N1CCC[C@H]1C(=O)N[C@H](C(=O)N[C@@H](CC(C)C)C(=O)N[C@@H](CC(C)C)C(=O)N[C@@H](Cc1ccccc1)C(=O)N[C@@H](CC(C)C)C(=O)N[C@@H](CCCCN)C(=O)N[C@H](C(=O)N1CCC[C@H]1C(N)=O)C(C)C)[C@@H](C)O)C(C)C [1–13] | 6.86
7 | CC[C@H](C)[C@H](NC(=O)[C@H](C)NC(=O)[C@H](CC(N)=O)NC(=O)[C@H](CCC(N)=O)NC(=O)[C@H](C)NC(=O)[C@@H]1CCCN1C(=O)[C@@H](NC(=O)[C@H](CCCCN)NC(=O)[C@H](CC(C)C)NC(=O)[C@H](Cc1ccccc1)NC(=O)[C@H](CC(C)C)NC(=O)[C@H](CC(C)C)NC(=O)[C@@H](NC(=O)[C@@H]1CCCN1C(=O)[C@H](CC(N)=O)NC(=O)[C@@H](N)C(C)C)[C@@H](C)O)C(C)C)C(=O)N[C@@H](CO)C(=O)N[C@H](C(=O)N[C@H](C(=O)N[C@@H](Cc1ccccc1)C(=O)N1CCC[C@H]1C(=O)N[C@@H](Cc1ccc(O)cc1)C(=O)N[C@H](C(N)=O)[C@@H](C)O)[C@@H](C)O)[C@@H](C)O [3–25] | 6.18
